Amino acid sequences for entries named in this document (tags omitted).
UniProt Q99720, whole entry: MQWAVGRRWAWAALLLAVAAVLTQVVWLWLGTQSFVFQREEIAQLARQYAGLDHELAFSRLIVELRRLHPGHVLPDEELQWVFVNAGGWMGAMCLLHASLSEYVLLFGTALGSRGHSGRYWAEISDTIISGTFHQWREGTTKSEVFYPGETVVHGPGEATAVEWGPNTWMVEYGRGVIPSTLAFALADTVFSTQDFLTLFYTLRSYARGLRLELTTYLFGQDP

In patent US9598414B2, “Substituted benzo[5,6]azepino[3,2,1-hi]pyrido[4,3-b]indoles and substituted benzo[6,7][1,4]oxazepino[2,3,4-hi]pyrido[4,3-b]indoles for treating CNS disorders” (Daya Drug Discoveries, Inc., priority 2013, dated 2017):

Molecular target: Sigma σ1 (Homo sapiens, UniProt Q99720)
Test: Receptor binding, σ1

CN1CCc2c(c3cccc4c3n2-c2ccccc2CC4)C1 [Compound 6a, reference compound] showed a Ki of 6.14 µM.
